Yeast mating assay 1: variants of the scFv Ab-14

Target: peptide PDVDLGDISGINAS, taken from heptad repeat 2 (HR2) of SARS-CoV-2 spike.

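The parent was found by panning a naive human phage display library on the peptide. AAYL50 was designed without a model: most single CDR substitutions and a random sample of double and triple ones. The scFvs were displayed on barcoded MATa yeast, the peptide on MATalpha yeast. Mating (16 h, 30 °C) was followed by selection of diploids and sequencing of their barcodes. Scores were corrected for input abundance and mapped to Kd with protein pairs of known affinity run in the same pool. Mating was done three times.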

Each scFv is VH, three GGGGS repeats, VL, as in the parent Ab-14, and differs from it in the CDRs of the light chain only.
VH: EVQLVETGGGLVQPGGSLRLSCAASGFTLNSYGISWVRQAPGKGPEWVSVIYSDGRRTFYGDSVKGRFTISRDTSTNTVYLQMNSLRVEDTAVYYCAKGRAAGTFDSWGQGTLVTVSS
VL: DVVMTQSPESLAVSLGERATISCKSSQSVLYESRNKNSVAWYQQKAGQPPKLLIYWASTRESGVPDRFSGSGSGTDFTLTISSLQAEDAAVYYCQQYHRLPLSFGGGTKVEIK

The parent's light chain CDRs are KSSQSVLYESRNKNSVA, WASTRES, QQYHRLPLS; each variant's own CDRs replace them letter for letter.
Every variant below is changed at L30 of the VL (sequential numbering).
Each Kd is an estimate from the mating assay, the geometric mean of the replicates in which the pair was seen; lower is stronger.
"not detected" marks a missing value. The strain was present, yet no cells mated with the target were sequenced in any replicate, which points to weak or no binding.
In this assay the parent's reference entry averaged 4.4 nM; its copy inside this library read 48 nM.

CDR-L1	CDR-L2	CDR-L3	Kd (apparent)	detected
KSSASVIYESRNKNSNA	WASTRES	QQYHRLPLS	4.9 µM	1/3
KSSQSVNYESRNKNSVA	WGSTRES	QQYHCLPLS	8.9 nM	3/3
KSSQFQNYESRNKNSVA	WASTRES	QQYHRLPLS	2.4 nM	3/3
KSSQWVRYESRNKNSVA	WASTREF	QQYHRLPLS	2.0 µM	1/3
KSSQSVAYESRNKNLSA	WASTRES	QQYHRLPLS	not detected	0/3
KSSQSVSYESCNKNSVA	DASTRES	QQYHRLPLS	1.3 nM	3/3
KSSMCVNYESRNKNSVA	WASTRES	QQYHRLPLS	4.9 nM	3/3
KSSQSVKYESRNVNSVA	WAQTRES	QQYHRLPLS	580 nM	3/3
KSSQSVYYESRNKNSVA	WASTIES	QQYHRMPLS	610 nM	3/3
KSSQSVRYESRNKNSVI	WASTRES	QQYARLPLS	not detected	0/3
KSSQSVEHESRNKNSVA	WASTRES	FQYHRLPLS	17 µM	1/3
KSSQSVVDESRNKNSVA	WASTRES	QQYHRLPLT	not detected	0/3
KSSQSVAGESRNKNSVA	WASTRCS	QQYHRLPLS	2.6 nM	3/3
KSSQSVMYESRNPRSVA	WASTRES	QQYHRLPLS	17 nM	3/3
KSSQSVYYESENKNSVA	WASTRLS	QQYHRLPLS	1.1 nM	3/3
KMSQSVWYESRNKNSVA	WASTRES	HQYHRLPLS	380 µM	1/3
KSSQSVPYFSRNKNRVA	WASTRES	QQYHRLPLS	47 nM	3/3
KSSQSVTYESRNKESVA	WASTREC	QQYHRLPLS	26 nM	3/3
KSSYSVWYESRNKNSVA	WASTRES	QQYHRLPFS	3.1 nM	3/3
KSSQSVRYESRNKNSVA	WASTRES	QQVHRLPHS	not detected	0/3
KSSQSVIYGSRNKNSVA	WASTREC	QQYHRLPLS	29 nM	3/3
KSSQSVVYTSRNKNSVA	WASTRMS	QQYHRLPLS	33 nM	3/3
KSSQSVIYESRNKNSVA	WASMRES	QQYHHLPLS	32 nM	3/3
KSSQSVMYESRNKNSVD	WASTRES	QQYHRLPLS	8.3 µM	1/3
KSSQSVPYESRNKNSVA	WASTYES	MQYHRLPLS	52 µM	1/3
KSSQSIHYESRNKNSVA	WASTRES	QQYHRLPLS	not detected	0/3
KSSQSVNYESRNKNSEA	WASTREA	QQYHRLPLS	160 µM	3/3
KSSQSVHYESRNKNSVA	WASTREY	QQYYRLPLS	16 nM	3/3
KSSQSVWAESRNKNSVA	WASTRES	QAYHRLPLS	3.5 nM	3/3
KSSQSVPYDSRNKNSVA	WASTMES	QQYHRLPLS	not detected	0/3
KSSQSVNYEKRLKNSVA	WASTRES	QQYHRLPLS	80 nM	3/3
RSSQSVAYESRNKNSVA	HASTRES	QQYHRLPLS	1.3 nM	3/3
KSSQSVAYESRNKNSVA	WASTVES	QQYHRYPLS	540 nM	3/3
KSSQSVSYESRNKNSVA	WASTRES	QQYHRDPLS	15 nM	3/3
KSSQSVWYESRNKNSVA	WDSTIES	QQYHRLPLS	2.0 µM	3/3
KSSQSVEYESRNKNSVA	WASTFES	YQYHRLPLS	not detected	0/3
KSSQSVKYESRNKDSVA	WASTRKS	QQYHRLPLS	13 µM	3/3
KSSQSVWYESRNKNSVA	WASTRES	IQYHRCPLS	not detected	0/3
KSSQSVSYESRNKTSVA	WASTRES	QQYHMLPLS	19 nM	3/3
KSSQSVKYESRNKNSVA	WAHTRES	QQRHRLPLS	580 nM	1/3
KSSQSVEYESRNKNSNA	WASTRES	QQYHRLMLS	not detected	0/3
PSSQSVKYESRNKNSVA	WASTQES	QQYHRLPLS	not detected	0/3
KSSQSVDYESRNKNSVA	VADTRES	QQYHRLPLS	1.4 µM	3/3
KSSQSVCYESRNKNSVA	WASTRES	QQYHRLSLS	not detected	0/3
KSSQSVYYCSRNKNSVW	WASTRES	QQYHRLPLS	not detected	0/3
KSSQSVRDESRNKNSVA	WAFTRES	QQYHRLPLS	890 nM	3/3
KSSQSVFYESRNKNSVA	WASTRES	QEYHRLPLL	92 nM	3/3
KSSQSVIYESRNKNSVA	WASCREQ	QQYHRLPLS	220 nM	3/3
KSSQSVWYESRNKNSIA	WVSTRES	QQYHRLPLS	37 nM	3/3
KSSQSVEFESRNKNSVA	WASTRES	QQYHRLPLD	3.5 nM	3/3
KSSQSVHYESRNKNSLA	RASTRES	QQYHRLPLS	210 nM	3/3
KSSQLVIYESRNKNSVA	WASTRES	QQYHRLPLS	57 nM	3/3
KSSQSVAYESRNKNSVA	WASTRES	QQYDNLPLS	not detected	0/3
KSSQSVPYESGNKNSVA	WASTRES	QQYKRLPLS	13 nM	3/3
KSSQSVRYESRNKNSVA	WASTRES	QQYHRLPLK	1.3 µM	1/3
KDSQSVGYESRNKRSVA	WASTRES	QQYHRLPLS	5.9 nM	3/3
KSSQSVGYESRNKNSVA	KASTREG	QQYHRLPLS	3.4 nM	3/3
KSSQSVTYESRNKNSVA	WASTRES	QQYHRLPLS	2.2 nM	3/3
KSWQSVPYESLNKNSVA	WASTRES	QQYHRLPLS	99 nM	3/3
FSSQSVYYESRNKNSVA	WASTREY	QQYHRLPLS	27 nM	3/3
TYSQSVQYESRNKNSVA	WASTRES	QQYHRLPLS	3.7 nM	3/3
KSSQSVSYESRNKNSVA	WASTRES	EQYWRLPLS	51 nM	3/3
KSSQSVKYESRNKNYVA	GASTRES	QQYHRLPLS	29 nM	3/3
KSSQSVGYESRNKASVA	WASTRES	QAYHRLPLS	140 nM	3/3
KSSQSVVYESRNKNSVA	WRSTRES	QQYHRNPLS	not detected	0/3
KSSQSVKYLSRNFNSVA	WASTRES	QQYHRLPLS	47 nM	3/3
KSSQSVWLESRNKNYVA	WASTRES	QQYHRLPLS	430 nM	3/3
KSMQSVEYESRNKNSVA	WRSTRES	QQYHRLPLS	44 µM	2/3
KSSQSVKYESRNYNSVA	WASTRES	QQYHPLPLS	3.7 µM	1/3
KSSQSVCYESRNKNSVA	MASTRES	QQYHRYPLS	65 nM	3/3
KSSQSVTYESRNKNSVT	WASTREQ	QQYHRLPLS	not detected	0/3
MSSQSVGYESRNKNSVA	WASTRAS	QQYHRLPLS	3.4 nM	3/3
KSDQSVWYESRNKNSCA	WASTRES	QQYHRLPLS	200 nM	2/3

Repeated from above, the 10 best binders with a signal in all replicates:

{"CDR-L1": "KSSQSVYYESENKNSVA", "CDR-L2": "WASTRLS", "CDR-L3": "QQYHRLPLS", "Kd (apparent)": "1.1 nM", "detected": "3/3"}
{"CDR-L1": "KSSQSVSYESCNKNSVA", "CDR-L2": "DASTRES", "CDR-L3": "QQYHRLPLS", "Kd (apparent)": "1.3 nM", "detected": "3/3"}
{"CDR-L1": "RSSQSVAYESRNKNSVA", "CDR-L2": "HASTRES", "CDR-L3": "QQYHRLPLS", "Kd (apparent)": "1.3 nM", "detected": "3/3"}
{"CDR-L1": "KSSQSVTYESRNKNSVA", "CDR-L2": "WASTRES", "CDR-L3": "QQYHRLPLS", "Kd (apparent)": "2.2 nM", "detected": "3/3"}
{"CDR-L1": "KSSQFQNYESRNKNSVA", "CDR-L2": "WASTRES", "CDR-L3": "QQYHRLPLS", "Kd (apparent)": "2.4 nM", "detected": "3/3"}
{"CDR-L1": "KSSQSVAGESRNKNSVA", "CDR-L2": "WASTRCS", "CDR-L3": "QQYHRLPLS", "Kd (apparent)": "2.6 nM", "detected": "3/3"}
{"CDR-L1": "KSSYSVWYESRNKNSVA", "CDR-L2": "WASTRES", "CDR-L3": "QQYHRLPFS", "Kd (apparent)": "3.1 nM", "detected": "3/3"}
{"CDR-L1": "KSSQSVGYESRNKNSVA", "CDR-L2": "KASTREG", "CDR-L3": "QQYHRLPLS", "Kd (apparent)": "3.4 nM", "detected": "3/3"}
{"CDR-L1": "MSSQSVGYESRNKNSVA", "CDR-L2": "WASTRAS", "CDR-L3": "QQYHRLPLS", "Kd (apparent)": "3.4 nM", "detected": "3/3"}
{"CDR-L1": "KSSQSVEFESRNKNSVA", "CDR-L2": "WASTRES", "CDR-L3": "QQYHRLPLD", "Kd (apparent)": "3.5 nM", "detected": "3/3"}

Background: pairings of library AAYL50 with three empty control strains gave a value in 18% of cases (median 15 µM, 5th percentile 970 nM). Values in that range, when seen in few replicates, are hard to tell from nonspecific mating.

Reference: Engelhart et al. 2022, doi:10.1038/s41597-022-01779-4. File: FLAb, binding data.